Literature values in US4988684A, “Novel 4-alkylthio-steroids” (Roussel Uclaf, priority 1988, dated 1991).

Test system: Aromatase
Conditions: it attacks enzymatic processes other than that leading from androgens to estrogens; cited from earlier work

CCC1(c2ccc(N)cc2)CCC(=O)NC1=O (stereo not shown) [Aminogluthetimide]
specificity for Aromatase: not to be specific for Aromatase
